Columns and labels:
Assay type in all cases: cell-based
[1] = test system: SLC25A15; experiment: RNA-seq of compound-treated primary human hepatocytes, SLC25A15 expression; details: RNA-seq (Table 8)
[2] = test system: CPS1; experiment: RNA-seq of compound-treated primary human hepatocytes, CPS1 expression
[3] = test system: ARG1; experiment: RNA-seq of compound-treated primary human hepatocytes, ARG1 expression; details: RNA-seq (Table 7)
[4] = test system: urea cycle genes; experiment: RNA-seq of primary human hepatocytes, compounds that modulate multiple urea cycle-related genes

GZD824 Dimesylate
Fold change (Log 2) vs untreated, SLC25A15 expression [1]: 0.73 Log 2
CPS1 expression, Fold change (Log 2) vs untreated [2]: 3.39 Log 2
Fold change (Log 2) vs untreated, ARG1 expression [3]: 1.06 Log 2
number of urea cycle genes whose expression was significantly up-regulated [4]: three
Up-regulated Genes ([4]; urea cycle-related genes significantly increased (Table 10)): CPS1, ARG1, SLC25A15
